The values below come from patent publication US10010612B2, “Sustained delivery formulations of risperidone compounds” (Indivior UK Limited, priority 2007, dated 2018).

Bounds are passed on as bounds.

For this series the following is noted: limit of solubility.

On to `Cc1nc2n(c(=O)c1CCN1CCC(c3noc4cc(F)ccc34)CC1)CCCC2` [Risperidone, 4-[2-[4-(6-fluorobenzo[d]isoxazol-3-yl)-1-piperidyl]ethyl]-3-methyl-2,6-diazabicyclo[4.4.0]deca-1,3-dien-5-one], for which the “solubility in ethyl lactate” value is given as at most 7.5 % by weight.
